Assays:
bifid bacteria [1] = assay: Influence on growth-promoting activity for bifid bacteria in vivo (healthy volunteers, feces); parameters: species or system human; settings: for Weight of feces: five healthy volunteers, mean ± SD
Procedure: The weight of daily feces before and after the 14-day administration tests, the relative change of feces' weight, the feces' pH, the total number of microorganisms per g of feces, the percentage of the number of bifid bacteria to the total number of microorganisms in feces, and the relative change of the total number of bifid bacteria were measured, followed by calculating the mean value of the five volunteers. Among these measurements, the total number of microorganisms was determined in accordance with the method as reported in "A Color Atlas of Anaerobic Bacteria", pp.53-65 (1984), edited by Tomotari MITSUOKA, published by Kabushiki Kaisha Sobunsha, Tokyo, Japan (1984): The colonies grown in 13 different types of media excluding M10 medium were judged for which genus they belong to and counted for cells. The cell count obtained with a specific medium, which gave the highest number of microorganisms for each genus, was determined to be a real cell count. The total cell count of microorganisms of all the genera was determined to be the total number of microorganisms in each volunteer's feces.

[2] = system: Eubacterium aerofaciens ATCC 25986; assay: Assimilation test by intestinal microorganism; type: cell-based; settings: 0.5 w/v % saccharide in PYF broth, 37° C., 96 hours; free of sugar: -
[3] = system: Bacteroides distasonis JCM 5825; assay: Assimilation test by intestinal microorganism; type: cell-based; settings: 0.5 w/v % saccharide in PYF broth, 37° C., 96 hours; free of sugar: -
[4] = system: Bacteroides vulgatus JCM 5826; assay: Assimilation test by intestinal microorganism; type: cell-based; settings: 0.5 w/v % saccharide in PYF broth, 37° C., 96 hours; free of sugar: -
[5] = system: Bacteroides uniformis JCM 5828; assay: Assimilation test by intestinal microorganism; type: cell-based; settings: 0.5 w/v % saccharide in PYF broth, 37° C., 96 hours; free of sugar: -
[6] = system: Clostridium ramosum JCM 1298; assay: Assimilation test by intestinal microorganism; type: cell-based; settings: 0.5 w/v % saccharide in PYF broth, 37° C., 96 hours; free of sugar: -
[7] = system: Streptococcus faecalis IAM 10065; assay: Assimilation test by intestinal microorganism; type: cell-based; settings: 0.5 w/v % saccharide in PYF broth, 37° C., 96 hours; free of sugar: -
[8] = system: Escherichia coli IFO 3301; assay: Assimilation test by intestinal microorganism; type: cell-based; settings: 0.5 w/v % saccharide in PYF broth, 37° C., 96 hours; free of sugar: -
bifid bacteria [9] = assay: Assimilation test by intestinal microorganism, overall judgement; type: cell-based; settings: compared with glucose and trehalose as a control
Procedure: To evaluate the growth rate of and to judge the assimilability by the microorganisms, the resultant broth was diluted 5-fold, and the turbidity of the dilution was measured at a wavelength of 750 nm in a 1-cm light-path cell. […] The criteria were in Table 3, and the results were in Tables 4 and 5: […]

[10] = After 10 g orally daily for 14 days

Compound | Relative changes of feces' weight (bifid bacteria [1]; After 10 g orally daily for 14 days, before = 100) | Weight of feces (bifid bacteria [1]; [10]) [g/day] | Relative changes of feces' weight (bifid bacteria [1]; […]) | Judgement of assimilation (turbidity at 750 nm, ×5) [2] | Judgement of assimilation (turbidity at 750 nm, ×5) [3] | Judgement of assimilation (turbidity at 750 nm, ×5) [4] | Judgement of assimilation (turbidity at 750 nm, ×5) [5] | Judgement of assimilation (turbidity at 750 nm, ×5) [6] | Judgement of assimilation (turbidity at 750 nm, ×5) [7] | Judgement of assimilation (turbidity at 750 nm, ×5) [8] | Selective assimilability by bifid bacteria, in words (bifid bacteria [9])
OC[C@H]1O[C@H](OC[C@H]2O[C@H](O[C@H]3O[C@H](CO[C@H]4O[C@H](CO)[C@@H](O)[C@H](O)[C@H]4O)[C@@H](O)[C@H](O)[C@H]3O)[C@H](O)[C@@H](O)[C@@H]2O)[C@H](O)[C@@H](O)[C@@H]1O [α-Isomaltosyl α-isomaltoside, O-α-D-glucopyranosyl -(1→6)-α-D-glucopyranosyl-O-α-D-glucopyranosyl-(1→6) -α-D-glucopyranoside] | 111 | 142 ± 40 | 100 | – | – | – | – | – | – | – | –
OC[C@H]1O[C@H](OC[C@H]2O[C@H](OC[C@H]3O[C@H](O[C@H]4O[C@H](CO)[C@@H](O)[C@H](O)[C@H]4O)[C@H](O)[C@@H](O)[C@@H]3O)[C@H](O)[C@@H](O)[C@@H]2O)[C@H](O)[C@@H](O)[C@@H]1O [α-Isomaltotriosyl α-glucoside, O-α-D-glucopyranosyl-(1→6)-O-α-D-glucopyranosyl-(1→6) α-D-glucopyranosyl α-D-glucopyranoside] | – | – | – | - (Less than 0.1) | - (Less than 0.1) | - (Less than 0.1) | - (Less than 0.1) | - (Less than 0.1) | - (Less than 0.1) | - (Less than 0.1) | high in the selective assimilability by bifid bacteria
OC[C@H]1O[C@H](OC[C@H]2O[C@H](O[C@H]3O[C@H](CO)[C@@H](O)[C@H](O)[C@H]3O)[C@H](O)[C@@H](O)[C@@H]2O)[C@H](O)[C@@H](O)[C@@H]1O [O-α-D-glucopyranosyl -(1→6)-α-D-glucopyranosyl α-D-glucopyranoside] | – | 140 ± 37 | – | – | – | – | – | – | – | – | –

Source: patent US5858992A, “Non-reducing saccharides, their preparation and use” (Kabushiki Kaisha Hayashibara Seibutsu Kagaku Kenkyujo, priority 1995, dated 1999)
